Binding of CDR-mutated scFvs to a peptide of the spike HR2 region

Data: MIT Lincoln Laboratory AlphaSeq set, Li et al. 2023, doi:10.1038/s41467-023-39022-2, as distributed in FLAb.

All variants were tested on one target, the spike HR2 peptide PDVDLGDISGINAS (SARS-CoV-2).

Ab-14 is the parent antibody, in scFv form: VH, then a 15-residue (Gly4Ser)3 linker, then VL. The heavy chain is unchanged in all variants.
VH: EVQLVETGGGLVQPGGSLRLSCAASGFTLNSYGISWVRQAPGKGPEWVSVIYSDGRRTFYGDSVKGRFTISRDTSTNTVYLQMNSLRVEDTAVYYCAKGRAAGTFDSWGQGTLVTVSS
VL: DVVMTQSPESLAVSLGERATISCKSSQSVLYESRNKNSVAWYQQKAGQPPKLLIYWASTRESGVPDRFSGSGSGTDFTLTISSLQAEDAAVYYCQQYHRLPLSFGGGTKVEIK

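The variants were designed computationally from a first round of random CDR variants and then made and measured. Their group label is 14L_En_Gen (En: ensemble of fine-tuned language models; Gen: genetic algorithm). Affinity was read by AlphaSeq, a pooled yeast mating assay with surface-displayed partners. Binding brings cells together so that they mate, and sequencing counts the barcode pairs among the diploids. Scores were corrected for input abundance and mapped to Kd with protein pairs of known affinity run in the same pool. The assay was run in six technical replicates.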

The parent's light chain CDRs are KSSQSVLYESRNKNSVA, WASTRES, QQYHRLPLS; each variant's own CDRs replace them letter for letter. Values are log10 of the apparent Kd in nM; lower means stronger binding. Replicates are averaged; those with no signal do not enter the mean. Where no diploid with the target was found in that replicate, the entry reads "nd": below detection, most likely a poor binder, though not proof of it. The parent sequence was in this pool as ten entries: three were never detected, three once, and four in most replicates, with averages from 0.34 to 2.37.

CDR-L1	CDR-L2	CDR-L3	log10 Kd (nM) by replicate	log10 Kd (nM), mean	empty controls
MISQLYNMGQFAINSVA	QASLRND	QQYDRLPLM	1.30 / 1.40 / 1.16 / 1.27 / 1.36 / 1.25	1.29	1/18 (1.54)
MISQLYNMGTFAINSVA	QASLRCN	QQYDRLPLI	nd / nd / nd / nd / nd / nd	nd	0/18
MVTQMAMTGMMSKRSVA	NAETRET	QQYHRLPLI	0.77 / 0.56 / 0.53 / 1.11 / 0.82 / 0.92	0.78	0/18
KITATMRFEQSKSNNIA	EVTQRSK	QQYYRLPLA	0.19 / 0.26 / 0.18 / -0.01 / 0.48 / 0.22	0.22	2/18 (2.20)
HMSALTLGGMRQRNSVA	QMTTREN	QQYDRLPLT	0.72 / nd / 2.33 / 0.82 / 0.67 / 1.90	1.29	0/18
TLYGLSMSMSKNKNNVA	EMTTRED	QQYDRLPLI	0.62 / 0.05 / 0.33 / 0.54 / 0.18 / 0.31	0.34	0/18
QISMLLNFESYKGSNVA	QMETRVN	QQYHHLPLS	0.72 / 0.21 / 0.36 / -0.17 / 0.44 / 0.18	0.29	2/18 (1.75)
MVSQLMVWGLHTKNSIA	EAQTRLN	QQYDRLPLF	nd / 2.05 / 2.20 / nd / 2.29 / 1.32	1.96	0/18
MLSGVLHMLGQKKNSIA	DLVNRAN	QQYHRLPLM	0.03 / 0.06 / -0.25 / -0.05 / -0.45 / 0.03	-0.10	1/18 (1.88)
MMSSLMGYESRNIQNVA	QTSTREE	QQYDRLPLV	0.22 / 0.39 / 0.22 / 0.21 / 0.09 / 0.37	0.25	1/18 (3.96)
MISQLYNMGQFAINSVA	QANLREE	QQYDRLPLI	0.64 / 0.61 / 0.40 / 0.65 / 0.20 / 0.71	0.53	1/18 (2.43)
MISQLMNMGQFAINSVA	QATIRNS	QQYDRLPLM	nd / nd / 2.10 / 0.47 / 0.53 / 1.84	1.24	0/18
QLSMITGHASMIKNNVA	EMETREN	QQYDRLPLS	nd / 1.27 / nd / 1.04 / 0.77 / 0.68	0.94	0/18
MISQVLNMATKTGNNVA	DLEERED	QQYFRLPLS	1.61 / nd / 1.98 / 1.27 / 0.62 / nd	1.37	0/18
MISQIYNMGQFAINSVA	QASTRNE	QQYDRLPLM	1.34 / 2.51 / 1.35 / 1.18 / 1.45 / 2.60	1.74	0/18
HITMGMYVKGRHHSSIA	QAETRAE	QQYDRLPLI	1.65 / 0.91 / 0.69 / 0.94 / 1.02 / 0.81	1.00	0/18
MMSQVTGQGMRHRNNVA	QTSTREP	QQYDRLPLV	1.22 / 1.15 / 0.99 / 0.92 / 1.10 / 1.28	1.11	1/18 (2.41)
MISQVMNTLTREGNNVA	DLQEREE	QQYFRLPLS	0.36 / 1.38 / 0.46 / 1.43 / 0.74 / 2.14	1.08	0/18
KIGMTLNQLMHQKNNVA	DLVQREN	QQYYRLPLS	0.30 / 0.51 / 0.30 / 0.39 / 0.50 / 0.38	0.40	1/18 (2.07)
KLSMITGHMSMSRNNVA	EMVTREN	QQYDRLPLS	nd / 0.35 / 1.06 / 0.16 / 0.60 / 1.42	0.72	0/18
KLTNVTGSEKVKGNNVA	EMETRER	QQYNRLPLS	1.18 / 0.89 / 0.89 / 0.99 / 0.55 / 0.81	0.88	0/18
MIHESYGLMQVKQSSIA	DNSTREE	QQYDRLPLS	3.96 / 1.47 / 1.39 / 1.14 / nd / 2.80	2.15	0/18
QIYQAMHTLMQMKNNVA	DVNERGD	QQYFRLPLA	-0.03 / -0.01 / -0.04 / -0.34 / 0.03 / -0.10	-0.08	0/18
MVSQLMVWGMHARNSIA	EAQMRLN	QQYDRLPLF	1.54 / 1.23 / 1.46 / 1.01 / 1.54 / 1.41	1.36	0/18
HMSAVTMLGMRQKNSVA	QMTTREN	QQYDRLPLA	2.24 / 0.90 / nd / 1.29 / 0.83 / 1.61	1.37	0/18
IVSQLMLWGYHAKNSIA	EASTRGN	QQYDRLPLF	0.08 / 0.18 / -0.26 / -0.18 / 0.35 / -0.14	0.00	0/18
KITALMRFEQKNSNNIA	EVSMRTK	QQYYRLPLS	0.54 / 0.62 / 0.18 / 0.13 / 0.50 / 0.44	0.40	1/18 (2.48)
QLSMITGHVSMSKNNVA	EMETREN	QQYDRLPLS	1.57 / 0.83 / 1.05 / 0.65 / 1.06 / 0.51	0.95	1/18 (1.46)
MISQLFNMGQFAINSVA	QASQRNE	QQYDRLPLM	0.57 / 0.96 / 0.59 / 0.59 / 0.78 / 0.77	0.71	3/18 (2.66)
KLTMIMGLEKVSKNQVA	EMETREK	QQYNRLPLS	1.34 / 0.63 / 0.63 / 1.17 / 1.16 / 0.86	0.97	0/18
KIGMTLNQLLHKKNNVA	DLVEREN	QQYFRLPLS	0.85 / 0.75 / 0.43 / 0.64 / 0.56 / 0.92	0.69	1/18 (2.32)
KISQMVRVGSTHSSSIA	EEVTRAK	QQYHRLPLS	nd / 1.89 / 1.90 / 0.98 / 2.38 / 2.35	1.90	0/18
MVTQMAMSGMTNKRNVA	NAETRED	QQYHRLPLI	1.47 / 0.40 / 0.95 / 1.46 / 0.67 / 0.94	0.98	3/18 (2.40)
QIGMLLNFESSKINNVA	QMETRVN	QQYDRLPLS	0.75 / 0.73 / 0.41 / 1.18 / 0.69 / 0.84	0.76	1/18 (1.84)
MISGVLHMLGAKKNSIA	DLVMRAN	QQYHRLPLF	1.43 / 2.21 / 2.43 / 1.67 / 0.83 / 2.72	1.88	0/18
MISQLYNMGQFAINSVA	QASQRNM	QQYDRLPLM	nd / 1.87 / 1.80 / 0.82 / 1.32 / 0.76	1.31	0/18
HITMGMYVSGRHHSNIA	QAETREK	QQYDRLPLI	0.28 / 1.42 / 0.74 / 1.16 / 1.32 / 0.96	0.98	0/18
MMSQVTGMELRQQNNVA	QTTTREE	QQYDRLPLV	0.66 / 1.35 / 0.58 / 2.06 / 1.11 / 2.51	1.38	0/18
MLSQMWAIGMKVSNSVA	QASTRFN	QQYERLPLI	1.07 / nd / 1.79 / 1.34 / 2.46 / 2.18	1.77	0/18
KLTMITGLEKVSTNNVA	EMETREH	QQYNRLPLS	0.84 / 0.66 / 0.59 / 0.38 / 0.52 / 0.55	0.59	0/18
MISNVMNTLTRQGNNVA	DLEERED	QQYFRLPLS	1.15 / 0.49 / 0.43 / 0.80 / 0.91 / 0.90	0.78	1/18 (4.30)
TIGASLMYGSRNRSNVA	EVSERLN	QQYDRLPLE	2.11 / 0.96 / 1.33 / 1.30 / 1.61 / 1.80	1.52	0/18
KIGDVLNQLMHKKNNVA	DLVTREN	QQYFRLPLS	1.36 / 1.11 / 1.42 / 1.52 / 1.34 / 1.72	1.41	2/18 (2.55)
QIYQAMHTLSQMKNNVA	DVTNRGK	QQYFRLPLS	0.55 / 0.50 / 0.30 / 0.48 / 0.32 / 0.41	0.42	0/18
MISQLYNMGQFAINSVA	QASQRCE	QQYDRLPLI	1.38 / 1.43 / 1.77 / 0.98 / 1.89 / 1.53	1.50	2/18 (2.92)
IVSNLMLWGYHAKNSIA	EAEMRTN	QQYDRLPLF	1.05 / 1.25 / 1.62 / 1.51 / 1.67 / 1.69	1.47	0/18
KVSSFMRGLMMRTDSIA	DNETRQS	QQYDRLPLS	1.47 / nd / 1.11 / 2.00 / 1.22 / 2.23	1.60	0/18

The 7 strongest on average among those seen in every replicate, once more:

{"CDR-L1": "MLSGVLHMLGQKKNSIA", "CDR-L2": "DLVNRAN", "CDR-L3": "QQYHRLPLM", "log10 Kd (nM) by replicate": "0.03 / 0.06 / -0.25 / -0.05 / -0.45 / 0.03", "log10 Kd (nM), mean": "-0.10", "empty controls": "1/18 (1.88)"}
{"CDR-L1": "QIYQAMHTLMQMKNNVA", "CDR-L2": "DVNERGD", "CDR-L3": "QQYFRLPLA", "log10 Kd (nM) by replicate": "-0.03 / -0.01 / -0.04 / -0.34 / 0.03 / -0.10", "log10 Kd (nM), mean": "-0.08", "empty controls": "0/18"}
{"CDR-L1": "IVSQLMLWGYHAKNSIA", "CDR-L2": "EASTRGN", "CDR-L3": "QQYDRLPLF", "log10 Kd (nM) by replicate": "0.08 / 0.18 / -0.26 / -0.18 / 0.35 / -0.14", "log10 Kd (nM), mean": "0.00", "empty controls": "0/18"}
{"CDR-L1": "KITATMRFEQSKSNNIA", "CDR-L2": "EVTQRSK", "CDR-L3": "QQYYRLPLA", "log10 Kd (nM) by replicate": "0.19 / 0.26 / 0.18 / -0.01 / 0.48 / 0.22", "log10 Kd (nM), mean": "0.22", "empty controls": "2/18 (2.20)"}
{"CDR-L1": "MMSSLMGYESRNIQNVA", "CDR-L2": "QTSTREE", "CDR-L3": "QQYDRLPLV", "log10 Kd (nM) by replicate": "0.22 / 0.39 / 0.22 / 0.21 / 0.09 / 0.37", "log10 Kd (nM), mean": "0.25", "empty controls": "1/18 (3.96)"}
{"CDR-L1": "QISMLLNFESYKGSNVA", "CDR-L2": "QMETRVN", "CDR-L3": "QQYHHLPLS", "log10 Kd (nM) by replicate": "0.72 / 0.21 / 0.36 / -0.17 / 0.44 / 0.18", "log10 Kd (nM), mean": "0.29", "empty controls": "2/18 (1.75)"}
{"CDR-L1": "TLYGLSMSMSKNKNNVA", "CDR-L2": "EMTTRED", "CDR-L3": "QQYDRLPLI", "log10 Kd (nM) by replicate": "0.62 / 0.05 / 0.33 / 0.54 / 0.18 / 0.31", "log10 Kd (nM), mean": "0.34", "empty controls": "0/18"}

The authors' rule: three or more of the six replicates give a measured affinity, fewer mean a poor binder. The range of this assay differs from that of the first round, and the authors advise against merging the two. Nonspecific signal, from three strains lacking the peptide, appeared in 4% of pairings of all light chain designs, centred on 2.64 (5% of these signals below 1.59); values are not corrected for it. Also given: how often the same scFv was detected with the empty control strains, with their mean in brackets.